These results are taken from paper PMC11531469.

This assay addresses Cdc45Δe (Cdc45-7HIS mutant in which all the aspartic and glutamic residues were replaced with asparagine and glutamine) (budding yeast) (UniProt Q08032). Nature of the assay: native gel or EMSA; 0.5 uM Cdc45-7HIS mixed with 0-2 uM H3/H4 tetramer, 15 min at 30 °C; 25 mM HEPES-KOH pH 7.5, 1 mM EDTA, 10% glycerol, 0.05% Tween 20, 300 mM KCl; loss of the free Cdc45 band on 5-20% Tris-Glycine gel, Coomassie; apparent. (In EMSA bound probe runs differently from free probe, usually more slowly.)

As for “histone H3/H4 tetramer (from UniProt P61830 1-136; P02309 1-103) (complex)”, the Kd turned out to be 152 nM.
